Source: US10195311B2, “Local delivery of drugs from self assembled coatings” (Interface Biologics, Inc., priority 2009, dated 2019)

Assay: Oligofluoro as solubilizing agent, drug release from coated nylon films in water
Assay type: physicochemical
Settings: drug at 4 wt %, nylon film, water 24 hours
Procedure: Several water insoluble drugs, paclitaxel (PTX), rapamycin, and ibuprofen were complexed with Compound 24 at 4 wt %. Coating was made on nylon film by drop casting method. Control films with drug coated only was also prepared in a same manner. Coated nylon films were incubated in water for 24 hours to measure drug release. Percentage drug released in water: Compound 24+PTX=94, PTX control=11; Compound 24+rapamycin=79, rapamycin control=4; Compound 24+ibuprofen=80, ibuprofen control=40.

Percentage drug released in water: 40%
Compound: CC(C)Cc1ccc(C(C)C(=O)O)cc1 (stereo not shown) [ibuprofen control, ibuprofen]
